Reference: PubChem BioAssay (NCI)
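The compound was tested at five concentrations on cells cultured in 96-well plates, with a 48-hour exposure period. Here, GI50 denotes the concentration required for 50% inhibition of growth. The concentration for full growth arrest is given as TGI.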

How the values were obtained:
Experiment in all cases: NCI-60 cell line screen, 48 h
[1] = system: HOP-18 NSCLC
[2] = system: K-562 leukemia
[3] = system: DLD-1 colon
[4] = system: UO-31 renal
[5] = system: LOX IMVI melanoma
[6] = system: ACHN renal
[7] = system: SN12C renal
[8] = system: HCC-2998 colon
[9] = system: SK-MEL-5 melanoma
[10] = system: HCT-116 colon
[11] = system: UACC-62 melanoma
[12] = system: LXFL 529 NSCLC
[13] = system: SNB-19 CNS
[14] = system: OVCAR-8 ovarian
[15] = system: DMS 273 small cell lung
[16] = system: SNB-75 CNS
[17] = system: DMS 114 small cell lung
[18] = system: M14 melanoma
[19] = system: SF-295 CNS
[20] = system: A498 renal
[21] = system: NCI-H322M lung
[22] = system: A549 NSCLC
[23] = system: OVCAR-4 ovarian
[24] = system: UACC-257 melanoma
[25] = system: SNB-78 CNS
[26] = system: U251 CNS
[27] = system: SF-539 CNS
[28] = system: IGROV1 ovarian

O=[N+]([O-])N1CCCS1(=O)=O
GI50 [1]: > 100 µM | TGI [1]: > 100 µM | GI50 [2]: > 100 µM | TGI [2]: > 100 µM | GI50 [3]: > 100 µM | TGI [3]: > 100 µM | GI50 [4]: > 100 µM | TGI [4]: > 100 µM | GI50 [5]: > 100 µM | TGI [5]: > 100 µM | GI50 [6]: > 100 µM | TGI [6]: > 100 µM | GI50 [7]: > 100 µM | TGI [7]: > 100 µM | GI50 [8]: > 100 µM | TGI [8]: > 100 µM | GI50 [9]: > 100 µM | TGI [9]: > 100 µM | GI50 [10]: > 100 µM | TGI [10]: > 100 µM | GI50 [11]: > 100 µM | TGI [11]: > 100 µM | GI50 [12]: > 100 µM | TGI [12]: > 100 µM | GI50 [13]: > 100 µM | TGI [13]: > 100 µM | GI50 [14]: > 100 µM | TGI [14]: > 100 µM | GI50 [15]: > 100 µM | TGI [15]: > 100 µM | GI50 [16]: > 100 µM | TGI [16]: > 100 µM | GI50 [17]: > 100 µM | TGI [17]: > 100 µM | GI50 [18]: > 100 µM | TGI [18]: > 100 µM | GI50 [19]: > 100 µM | TGI [19]: > 100 µM | GI50 [20]: > 100 µM | TGI [20]: > 100 µM | GI50 [21]: > 100 µM | TGI [21]: > 100 µM | GI50 [22]: > 100 µM | TGI [22]: > 100 µM | GI50 [23]: > 100 µM | TGI [23]: > 100 µM | GI50 [24]: > 100 µM | TGI [24]: > 100 µM | GI50 [25]: > 100 µM | TGI [25]: > 100 µM | GI50 [26]: > 100 µM | TGI [26]: > 100 µM | GI50 [27]: > 100 µM | TGI [27]: > 100 µM | GI50 [28]: > 100 µM | TGI [28]: > 100 µM
